One may read the IC50 as the point on the concentration scale where inhibition reaches its midpoint.

By UniProt entry, the sequences of proteins in these tests, tags left out.
UniProt P61169, whole entry: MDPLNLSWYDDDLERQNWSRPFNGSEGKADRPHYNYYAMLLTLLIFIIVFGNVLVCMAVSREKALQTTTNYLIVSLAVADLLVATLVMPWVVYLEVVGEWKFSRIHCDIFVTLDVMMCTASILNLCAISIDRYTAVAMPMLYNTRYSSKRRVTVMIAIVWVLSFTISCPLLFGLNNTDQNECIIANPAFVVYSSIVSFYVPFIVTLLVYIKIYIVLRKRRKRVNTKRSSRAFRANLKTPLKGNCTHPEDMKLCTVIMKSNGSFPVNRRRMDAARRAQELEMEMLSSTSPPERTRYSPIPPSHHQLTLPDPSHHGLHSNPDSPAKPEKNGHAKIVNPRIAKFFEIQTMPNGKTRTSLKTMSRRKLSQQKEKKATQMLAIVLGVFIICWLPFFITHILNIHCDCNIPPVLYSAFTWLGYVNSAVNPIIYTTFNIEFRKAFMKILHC

The structures appear in SMILES notation.

Here are results for one compound from patent US5945415A, “(R)-5-bromo-N-(1-ethyl-4-methylhexahydr o-1H-1,4-diazepin-6-yl)-2-methoxy-6-methylamino-3-pyridinecarboxamide, process for producing the same and medicinal composition containing the same” (priority 1995, dated 1999).

The target in this assay is Dopamine D2 receptor (Rattus norvegicus, UniProt P61169). The note with it: read-out: IC50 D2; crude synaptosome fractions from rat brain, [3H] spiperone (D2).

Consider `CCN(CC)CCNC(=O)c1cc(Cl)c(N)cc1OC.Cl.Cl.O` [metoclopramide hydrochloride, 4-amino-5-chloro-N-[2-(diethylamino)ethyl]-2-methoxybenzamide dihydrochloride monohydrate], for which the IC50 stood at 630 nM.
